# Measured values as given in patent US12359182B2, “Polypeptide variants” (Novozymes A/S, priority 2020, dated 2025).
# Sequences of proteins named here, by UniProt entry; tags and fusion partners are left off.
# UniProt A4K5H9, entry or part of it E34D: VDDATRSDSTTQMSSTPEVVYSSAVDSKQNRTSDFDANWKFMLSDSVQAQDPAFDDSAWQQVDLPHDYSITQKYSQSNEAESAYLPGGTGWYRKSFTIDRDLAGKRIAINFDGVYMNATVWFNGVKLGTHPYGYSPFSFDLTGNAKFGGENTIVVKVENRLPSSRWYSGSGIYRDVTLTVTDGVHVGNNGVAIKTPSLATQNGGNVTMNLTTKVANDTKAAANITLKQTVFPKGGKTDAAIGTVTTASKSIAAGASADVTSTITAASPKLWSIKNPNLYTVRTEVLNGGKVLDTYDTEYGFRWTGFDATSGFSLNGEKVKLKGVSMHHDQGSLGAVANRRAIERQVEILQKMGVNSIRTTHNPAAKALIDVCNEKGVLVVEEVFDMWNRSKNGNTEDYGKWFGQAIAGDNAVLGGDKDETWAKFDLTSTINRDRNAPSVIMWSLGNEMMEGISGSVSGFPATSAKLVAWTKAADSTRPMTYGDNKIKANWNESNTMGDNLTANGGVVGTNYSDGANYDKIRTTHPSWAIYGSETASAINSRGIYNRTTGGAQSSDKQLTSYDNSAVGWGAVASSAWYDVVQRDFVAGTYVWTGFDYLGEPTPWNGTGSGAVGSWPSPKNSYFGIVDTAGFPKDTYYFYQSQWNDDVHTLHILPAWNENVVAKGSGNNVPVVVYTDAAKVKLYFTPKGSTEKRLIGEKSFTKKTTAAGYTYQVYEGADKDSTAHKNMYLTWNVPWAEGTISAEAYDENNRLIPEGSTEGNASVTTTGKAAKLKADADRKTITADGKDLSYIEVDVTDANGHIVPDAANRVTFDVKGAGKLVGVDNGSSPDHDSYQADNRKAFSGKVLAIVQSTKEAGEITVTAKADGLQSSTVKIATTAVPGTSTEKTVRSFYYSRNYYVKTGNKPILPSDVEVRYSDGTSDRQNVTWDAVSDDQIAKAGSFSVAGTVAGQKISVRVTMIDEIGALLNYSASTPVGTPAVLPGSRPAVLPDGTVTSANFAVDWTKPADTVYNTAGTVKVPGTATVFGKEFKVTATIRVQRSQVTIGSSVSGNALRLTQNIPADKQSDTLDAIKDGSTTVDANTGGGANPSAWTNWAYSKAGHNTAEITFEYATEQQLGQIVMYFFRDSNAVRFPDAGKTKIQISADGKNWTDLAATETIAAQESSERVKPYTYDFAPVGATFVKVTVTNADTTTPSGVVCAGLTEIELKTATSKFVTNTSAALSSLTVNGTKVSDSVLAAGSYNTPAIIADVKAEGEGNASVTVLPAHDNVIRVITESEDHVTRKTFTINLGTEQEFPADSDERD
# UniProt A4K5H9, entry or part of it V33H: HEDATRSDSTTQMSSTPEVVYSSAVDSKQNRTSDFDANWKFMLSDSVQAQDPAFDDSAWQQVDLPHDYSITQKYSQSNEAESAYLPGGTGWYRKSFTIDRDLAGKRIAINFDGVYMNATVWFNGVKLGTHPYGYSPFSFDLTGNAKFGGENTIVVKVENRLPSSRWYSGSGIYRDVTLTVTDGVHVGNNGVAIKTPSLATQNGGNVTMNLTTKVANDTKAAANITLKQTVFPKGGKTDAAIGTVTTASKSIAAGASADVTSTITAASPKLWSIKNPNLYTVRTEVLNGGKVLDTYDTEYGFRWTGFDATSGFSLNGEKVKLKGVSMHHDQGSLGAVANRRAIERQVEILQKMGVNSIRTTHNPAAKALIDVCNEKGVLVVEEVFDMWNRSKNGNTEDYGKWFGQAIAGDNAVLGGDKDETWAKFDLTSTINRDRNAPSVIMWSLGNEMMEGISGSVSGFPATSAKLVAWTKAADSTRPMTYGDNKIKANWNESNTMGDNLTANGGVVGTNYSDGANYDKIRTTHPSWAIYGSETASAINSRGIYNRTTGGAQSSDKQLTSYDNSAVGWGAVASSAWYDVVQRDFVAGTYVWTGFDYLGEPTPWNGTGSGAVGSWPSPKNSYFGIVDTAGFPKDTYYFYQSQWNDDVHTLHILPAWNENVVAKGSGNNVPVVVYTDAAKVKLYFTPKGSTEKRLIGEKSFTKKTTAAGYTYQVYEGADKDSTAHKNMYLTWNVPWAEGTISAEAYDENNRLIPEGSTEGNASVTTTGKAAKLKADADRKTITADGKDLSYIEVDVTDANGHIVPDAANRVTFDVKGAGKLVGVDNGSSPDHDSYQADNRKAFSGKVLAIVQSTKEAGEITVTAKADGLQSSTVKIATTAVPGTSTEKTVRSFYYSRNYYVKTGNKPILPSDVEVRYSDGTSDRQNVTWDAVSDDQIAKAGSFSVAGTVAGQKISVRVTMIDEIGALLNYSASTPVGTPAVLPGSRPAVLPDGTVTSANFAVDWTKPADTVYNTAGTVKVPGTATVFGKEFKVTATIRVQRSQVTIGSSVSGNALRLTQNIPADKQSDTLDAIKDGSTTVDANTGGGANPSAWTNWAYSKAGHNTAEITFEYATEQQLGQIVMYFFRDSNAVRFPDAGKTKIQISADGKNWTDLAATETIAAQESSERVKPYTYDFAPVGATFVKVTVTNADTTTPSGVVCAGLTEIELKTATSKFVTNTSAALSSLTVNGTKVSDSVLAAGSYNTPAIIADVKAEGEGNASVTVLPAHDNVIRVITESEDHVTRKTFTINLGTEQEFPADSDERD
# UniProt A4K5H9, entry or part of it V33L: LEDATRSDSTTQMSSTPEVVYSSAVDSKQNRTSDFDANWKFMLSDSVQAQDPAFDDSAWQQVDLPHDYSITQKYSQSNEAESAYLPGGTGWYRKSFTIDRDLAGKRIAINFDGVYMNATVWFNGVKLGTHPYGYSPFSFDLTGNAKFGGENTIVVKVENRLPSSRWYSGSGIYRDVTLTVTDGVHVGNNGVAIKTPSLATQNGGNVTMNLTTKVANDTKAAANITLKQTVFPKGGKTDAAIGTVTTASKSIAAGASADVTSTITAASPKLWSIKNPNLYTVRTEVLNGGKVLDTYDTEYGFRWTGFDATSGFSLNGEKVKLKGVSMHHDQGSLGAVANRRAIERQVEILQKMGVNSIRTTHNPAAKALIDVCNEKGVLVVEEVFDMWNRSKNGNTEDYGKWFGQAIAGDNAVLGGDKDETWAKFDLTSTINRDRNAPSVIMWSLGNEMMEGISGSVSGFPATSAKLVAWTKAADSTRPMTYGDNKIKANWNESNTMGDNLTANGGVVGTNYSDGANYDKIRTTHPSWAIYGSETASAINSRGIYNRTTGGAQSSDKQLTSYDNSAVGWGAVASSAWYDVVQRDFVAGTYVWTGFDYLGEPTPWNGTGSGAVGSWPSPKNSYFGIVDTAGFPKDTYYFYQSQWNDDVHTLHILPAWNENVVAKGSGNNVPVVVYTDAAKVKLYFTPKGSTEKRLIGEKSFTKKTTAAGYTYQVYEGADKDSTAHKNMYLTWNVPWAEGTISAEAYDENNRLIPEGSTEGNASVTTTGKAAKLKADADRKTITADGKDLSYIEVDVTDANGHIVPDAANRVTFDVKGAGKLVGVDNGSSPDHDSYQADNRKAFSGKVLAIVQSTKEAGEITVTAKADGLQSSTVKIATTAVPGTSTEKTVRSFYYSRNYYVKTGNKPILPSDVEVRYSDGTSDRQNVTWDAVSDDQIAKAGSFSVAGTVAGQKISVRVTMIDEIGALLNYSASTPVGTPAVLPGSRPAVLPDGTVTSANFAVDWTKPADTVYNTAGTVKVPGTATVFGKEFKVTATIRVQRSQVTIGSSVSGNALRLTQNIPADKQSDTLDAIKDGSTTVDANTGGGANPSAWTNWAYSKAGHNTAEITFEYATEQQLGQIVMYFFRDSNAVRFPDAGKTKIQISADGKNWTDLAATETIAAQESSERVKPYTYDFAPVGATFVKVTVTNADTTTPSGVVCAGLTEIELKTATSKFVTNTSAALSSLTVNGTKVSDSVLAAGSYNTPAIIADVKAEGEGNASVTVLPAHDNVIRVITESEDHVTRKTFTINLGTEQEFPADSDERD
# Legend:
# Type in all cases: biochemical
# Details in all cases: D-(+)-Galactose 80 mM, ONPG 10.66 mM, pH 6.0, 30 min at 23° C., ratio of activity with/without galactose relative to wild type SEQ ID NO: 1 (IF=1.0), above 1 = decreased galactose inhibition
# [1] = molecular target: Bifidobacterium bifidum lactase (SEQ ID NO: 1) variant E2D (Bifidobacterium bifidum, UniProt A4K5H9, E34D)
# Procedure: (§1) Stop solution is added (Na2CO3, 10% w/v in H2O), and the absorbance at 405 nm is recorded. “Abs405 Galactose sample” is the absorbance for the lactase grown in assay solution, “Abs405 Galactose Blank” is the absorbance for non-inoculated assay solution, “Abs405 Reference sample” is the absorbance for the lactase grown in reference solution, and “Abs405 Reference Blank” is the absorbance for non-inoculated reference solution.
# [2] = molecular target: Bifidobacterium bifidum lactase (SEQ ID NO: 1) variant V1H (Bifidobacterium bifidum, UniProt A4K5H9, V33H)
# Procedure: as §1
# [3] = molecular target: Bifidobacterium bifidum lactase (SEQ ID NO: 1) variant V1L (Bifidobacterium bifidum, UniProt A4K5H9, V33L)
# Procedure: as §1
structure (smiles),measurement,setting,value
OC[C@H]1OC(O)[C@H](O)[C@@H](O)[C@H]1O (stereo partly drawn) [D-(+)-Galactose],GI-IF (galactose inhibition assay improvement factor),[1],1.36
same,GI-IF (galactose inhibition assay improvement factor),[2],1.31
same,GI-IF (galactose inhibition assay improvement factor),[3],1.35
